Data published in ChEMBL document CHEMBL1125020 (J Med Chem, 1990).
pKi: −log10 of the molar value.

Chains of the proteins cited; added tags and fusions are not shown.
UniProt P25099, whole entry: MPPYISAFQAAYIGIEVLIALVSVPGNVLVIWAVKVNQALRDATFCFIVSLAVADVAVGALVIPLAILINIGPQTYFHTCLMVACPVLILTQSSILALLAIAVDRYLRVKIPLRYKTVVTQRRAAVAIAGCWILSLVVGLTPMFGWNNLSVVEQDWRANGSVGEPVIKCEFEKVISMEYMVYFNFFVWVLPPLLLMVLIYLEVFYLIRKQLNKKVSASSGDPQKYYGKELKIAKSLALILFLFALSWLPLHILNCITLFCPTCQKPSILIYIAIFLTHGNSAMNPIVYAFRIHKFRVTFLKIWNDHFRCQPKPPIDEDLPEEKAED

Biological target: Adenosine receptor A1 (Rattus norvegicus, UniProt P25099)

pKi: 6.90
SMILES: OC[C@H]1O[C@@H](n2cnc3c(NCc4ccccc4)ncnc32)[C@H](O)[C@@H]1O [N6-BENZYLADENOSINE]
